{"source": "patent US20240327383A1", "about": "(priority 2021, published 2024)", "key": {"[1]": {"molecular_target": "hKOPr (Homo sapiens, UniProt P41145)", "conditions": "read-out: Opioid receptor affinity Ki hKOPr; [3H]-U69593 1.5 nM"}, "[2]": {"molecular_target": "hNOPr (Homo sapiens, UniProt P41146)", "conditions": "read-out: Opioid receptor affinity Ki hNOPr; [3H]-Nociceptin 0.5 nM"}, "[3]": {"molecular_target": "hMOPr (Homo sapiens, UniProt P35372)", "conditions": "summary of the binding panel MOP/NOP/KOP/DOP"}}, "data": [{"compound": "O=C1NCc2cc(Cl)c(Cl)cc2N1C1CCN(Cc2ccccc2F)CC1", "values": [{"measurement": "Ki", "setting": "[1]", "value": 0.75, "unit": "nM"}, {"measurement": "Ki", "setting": "[2]", "value": 26.3, "unit": "nM"}]}, {"compound": "Cc1ccc2c(c1)n(CCN1CCOCC1)c(=O)n2C1CCN([C@H]2CC[C@@H](C(C)C)CC2)CC1", "values": [{"measurement": "Ki", "setting": "[2]", "value": 329, "unit": "nM"}]}, {"compound": "CC(C)C1CCC(N2CCC(N3C(=O)N(CCN4CCOCC4)Cc4cc(Cl)c(Cl)cc43)CC2)CC1", "note": "(centres unmarked)", "values": [{"measurement": "Ki", "setting": "[1]", "value": 7.34, "unit": "nM"}, {"measurement": "Ki", "setting": "[2]", "value": 31.9, "unit": "nM"}, {"measurement": "selectivity and affinity for MOP receptor and KOP receptor (in words)", "setting": "[3]", "value": "high selectivity and high affinity for MOP receptor and KOP receptor"}]}, {"compound": "O=C1NCc2cc(Cl)c(Cl)cc2N1C1CCN(Cc2ccccc2Cl)CC1", "values": [{"measurement": "Ki", "setting": "[1]", "value": 0.75, "unit": "nM"}, {"measurement": "Ki", "setting": "[2]", "value": 13.6, "unit": "nM"}]}]}
